Assay results from publication PMC9974466 (Proceedings of the National Academy of Sciences of the …, 2023).

Biological target: T1, human PTHR1 (Homo sapiens, UniProt Q03431)
T1 construct: expressed in transfected cells; host or cells: GP2.3 (HEK293-derived)
T1 sequence (Q03431 27-593): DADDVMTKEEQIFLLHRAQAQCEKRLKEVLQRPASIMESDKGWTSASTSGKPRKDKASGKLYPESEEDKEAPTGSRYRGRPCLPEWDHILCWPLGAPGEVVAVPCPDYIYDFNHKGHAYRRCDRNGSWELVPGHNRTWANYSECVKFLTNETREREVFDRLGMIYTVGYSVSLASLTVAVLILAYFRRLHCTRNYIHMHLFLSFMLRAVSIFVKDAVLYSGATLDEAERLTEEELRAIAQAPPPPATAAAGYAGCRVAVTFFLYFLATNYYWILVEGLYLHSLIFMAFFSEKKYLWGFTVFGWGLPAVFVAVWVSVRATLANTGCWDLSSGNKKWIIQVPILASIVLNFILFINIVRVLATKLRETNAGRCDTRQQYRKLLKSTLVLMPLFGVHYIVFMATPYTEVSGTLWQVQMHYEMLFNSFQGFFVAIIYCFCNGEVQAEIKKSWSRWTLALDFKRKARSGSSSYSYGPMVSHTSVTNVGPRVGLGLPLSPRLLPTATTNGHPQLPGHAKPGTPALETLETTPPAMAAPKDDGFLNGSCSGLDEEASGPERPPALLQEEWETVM
Assay: PTH-stimulated cAMP formation in GP2.3 reporter cells (Glosensor)
Assay type: cell-based
Details: GP2.3 cells; synthetic peptides; mean ± SEM, n = 3; maximum luminescence 20 to 23 min
Description: SGS-72 cells, i.e., human osteosarcoma SaOS-2 cells stably expressing the Glosensor cAMP reporter, were maintained in modified McCoy’s 5A medium [15% FBS, 1% penicillin/streptomycin, and 1% nonessential amino acids, as described ([29])]. GP2.3 cells, i.e., HEK293 cells stably expressing the human PTHR1 and the Glosensor cAMP reporter, were maintained in DMEM (10% FBS, 1% penicillin/streptomycin), as described ([24]). Cells were seeded into 96‐well white plates (40,000 cells/100µL/well); 24 to 48 h after confluency, the wells were rinsed with 100 µL carbon dioxide-independent culture medium (CIDB; Life Technologies) containing 0.1% bovine serum albumin (BSA), which was then replaced with 90 µL of luciferin (0.5 mM in CIDB) for 15 min before adding 10 µL of increasing concentrations of PTH analogs diluted in CIDB or 10 µL of CIDB, and then measuring cAMP‐dependent luminescence at 2‐min intervals using a PerkinElmer Envision plate reader (PerkinElmer), as described ([24]). For each well, the maximum luminescence (counts per second, cps) was typically observed 20 to 23 min after ligand addition, which was used to generate ligand dose–response curves, as described ([24]). GP2.3 cells were also used for the evaluation of CM from transfected COS-7 cells; PTH(1-84) served as control.

EC50: 3.5 ± 1.4 nM
Structure (SMILES): CC[C@H](C)[C@H](NC(=O)[C@H](CCC(=O)O)NC(=O)[C@H](CO)NC(=O)[C@@H](NC(=O)[C@@H](N)CO)C(C)C)C(=O)N[C@@H](CCC(N)=O)C(=O)N[C@@H](CC(C)C)C(=O)N[C@@H](CCSC)C(=O)N[C@@H](Cc1cnc[nH]1)C(=O)N[C@@H](CC(N)=O)C(=O)N[C@@H](CC(C)C)C(=O)NCC(=O)N[C@@H](CCCCN)C(=O)N[C@@H](Cc1cnc[nH]1)C(=O)N[C@@H](CC(C)C)C(=O)N[C@@H](CC(N)=O)C(=O)N[C@@H](CO)C(=O)N[C@@H](CCSC)C(=O)N[C@@H](CCC(=O)O)C(=O)N[C@@H](CCCNC(=N)N)C(=O)N[C@H](C(=O)N[C@@H](CCC(=O)O)C(=O)N[C@@H](Cc1c[nH]c2ccccc12)C(=O)N[C@@H](CC(C)C)C(=O)N[C@@H](CCCNC(=N)N)C(=O)N[C@@H](CCCCN)C(=O)N[C@@H](CCCCN)C(=O)N[C@@H](CC(C)C)C(=O)N[C@@H](CCC(N)=O)C(=O)N[C@@H](CC(=O)O)C(=O)N[C@H](C(=O)N[C@@H](Cc1cnc[nH]1)C(=O)N[C@@H](CC(N)=O)C(=O)N[C@@H](Cc1ccccc1)C(N)=O)C(C)C)C(C)C [[S1]PTH(1-34), reference compound]
